For data set [1] the following is noted: 308.15 K; 101.33 kPa; Liquid; Vibrating tube method.
Data set [2] is described as follows: excess molar enthalpy (molar enthalpy of mixing); xn = mol fraction of the nth substance listed. The note with it: 308.15 K, 101.33 kPa, Liquid, Flow calorimetry.

± gives the expanded uncertainty stated by the source.

The values below come from the NIST ThermoML archive (doi:10.1016/j.tca.2005.01.064).

Turning to `OCCOCCOCCOCCO` [tetraethylene glycol], in data set [1], the mass density is reported as 1112.28 ± 0.17 kg/m3.

Regarding `OCCOCCOCCOCCO` [tetraethylene glycol] + CCO, the excess molar enthalpy stood at 0.127 ± 0.0023 kJ/mol in data set [2] (x1 = 0.0243); 0.23 ± 0.0033 kJ/mol in data set [2] (x1 = 0.0475); 0.316 ± 0.0042 kJ/mol in data set [2] (x1 = 0.0697); 0.381 ± 0.0048 kJ/mol in data set [2] (x1 = 0.0908); 0.479 ± 0.0058 kJ/mol in data set [2] (x1 = 0.1303); 0.544 ± 0.0064 kJ/mol in data set [2] (x1 = 0.1664). Besides, the excess molar enthalpy turned out to be 0.636 ± 0.0074 kJ/mol in data set [2] (x1 = 0.2305); 0.679 ± 0.0078 kJ/mol in data set [2] (x1 = 0.2853); 0.736 ± 0.0084 kJ/mol in data set [2] (x1 = 0.3746); 0.761 ± 0.0086 kJ/mol in data set [2] (x1 = 0.4734); 0.747 ± 0.0085 kJ/mol in data set [2] (x1 = 0.5451); 0.69 ± 0.0079 kJ/mol in data set [2] (x1 = 0.6425). Also, the excess molar enthalpy came out at 0.622 ± 0.0072 kJ/mol in data set [2] (x1 = 0.7056); 0.5 ± 0.006 kJ/mol in data set [2] (x1 = 0.7824); 0.416 ± 0.0052 kJ/mol in data set [2] (x1 = 0.8276); 0.293 ± 0.0039 kJ/mol in data set [2] (x1 = 0.8779); 0.153 ± 0.0025 kJ/mol in data set [2] (x1 = 0.935).

As a reminder, the mass density is the mass of a sample divided by its volume.
